The values below come from ChEMBL document CHEMBL3286155, “Tricyclic pyrazoles. Part 6. Benzofuro[3,2-c]pyrazole: a versatile architecture for CB2 selective ligands” (Eur J Med Chem, 2014).

The chains behind the UniProt entries cited, without tags or fusion partners.
UniProt P21554, whole entry: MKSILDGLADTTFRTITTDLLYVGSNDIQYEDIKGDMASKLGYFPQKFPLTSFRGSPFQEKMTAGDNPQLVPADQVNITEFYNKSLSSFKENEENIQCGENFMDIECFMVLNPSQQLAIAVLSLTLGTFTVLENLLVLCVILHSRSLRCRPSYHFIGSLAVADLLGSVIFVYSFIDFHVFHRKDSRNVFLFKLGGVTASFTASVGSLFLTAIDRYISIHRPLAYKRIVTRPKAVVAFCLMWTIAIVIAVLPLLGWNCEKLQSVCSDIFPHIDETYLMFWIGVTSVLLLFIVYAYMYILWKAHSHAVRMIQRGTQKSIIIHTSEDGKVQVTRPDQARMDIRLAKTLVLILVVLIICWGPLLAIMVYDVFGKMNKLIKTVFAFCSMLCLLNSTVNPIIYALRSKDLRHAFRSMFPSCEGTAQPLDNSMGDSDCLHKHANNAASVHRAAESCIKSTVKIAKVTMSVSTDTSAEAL

The assay deals with Cannabinoid receptor 1 (Homo sapiens, UniProt P21554).

As a reminder, the Ki is the equilibrium dissociation constant of an inhibitor or competing ligand from its target. Higher therefore signals weaker binding. Turning to `Cc1ccc(Cn2nc(C(=O)N[C@@H]3C(C)(C)[C@@H]4CC[C@@]3(C)C4)cc2-c2ccc(Cl)c(C)c2)cc1` [SR-144528], the affinity corresponds to a Ki of 70 nM.
